Values after ≈ are worked out from the molar mass of the structure shown.
Tested on: S. aureus
Conditions: 24 hours at 37° C.

Work on `CC[C@H](C)[C@H](NC(=O)CN)C(=O)NCC(=O)N[C@@H](C)C(=O)N[C@H](C(=O)N[C@@H](CC(C)C)C(=O)N[C@@H](CCCCN)C(=O)N[C@H](C(=O)N[C@@H](CC(C)C)C(=O)N[C@H](C(=O)N[C@H](C(=O)NCC(=O)N[C@@H](CC(C)C)C(=O)N1CCC[C@H]1C(=O)N[C@@H](C)C(=O)N[C@@H](CC(C)C)C(=O)N[C@H](C(=O)N[C@@H](CO)C(=O)N[C@@H](Cc1c[nH]c2ccccc12)C(=O)N[C@H](C(=O)N[C@@H](CCCCN)C(=O)N[C@@H](CCCNC(=N)N)C(=O)N[C@@H](CCCCN)C(=O)N[C@@H](CCCNC(=N)N)C(=O)N[C@@H](CCC(N)=O)C(=O)N[C@@H](CCC(N)=O)C(N)=O)[C@@H](C)CC)[C@@H](C)CC)[C@@H](C)O)[C@@H](C)O)C(C)C)C(C)C` [Melittin, melittin] yielded an MIC of 2 µM (≈ 5.69 µg/mL).

Reference: patent US20190038714A1, “ANTI-INFLAMMATORY COMPOSITION COMPRISING CLAVASPIRIN PEPTIDE ANALOGUE AS EFFECTIVE INGREDIENT” (INDUSTRY-ACADEMIC COOPERATION FOUNDATION, CHOSUN UNIVERSITY, priority 2015, published 2019)
